# This is a selection; strong and weak results do not stand in their true shares. Records with an inconclusive call do not appear. Entries that show only a call come without a potency. The source made the active and inactive calls. The call rests on the fitted dose curve.
# Assay: Nuclear factor erythroid 2-related factor 2/antioxidant responsive element (Nrf2/ARE) small molecule agonists: luciferase reporter gene qHTS assay in human keratinocytes (AID 1919969); further: nearly all actives have a fitted effect of over 35% in size
# Conditions: KeratinoSens HaCaT ARE-luciferase, luminescence, 24 h; series mostly up to 92.4 µM
# Excerpt: National Center for Advancing Translational Sciences [NCATS]
# Division of Preclinical Innovation [DPI]
# U.S. Environmental Protection Agency [EPA]
# National Institutes of Environmental Health Sciences [NIEHS]
# National Toxicology Program [NTP]
# U.S. Food and Drug Administration [FDA]
# Oxidative stress has been implicated in the pathogenesis of a variety of diseases ranging from cancer to neurodegeneration. The antioxidant response element (ARE) signaling pathway plays an important role in the amelioration of oxidative stress. The KeratinoSens (Givaudan, Switzerland) is an in vitro test method which quantifies luciferase induction as a measure of activation of Keap1-Nrf2-antioxidationt/electrophile response element (ARE) dependant pathway in HaCaT human keratinocytes stably transfected with a selectable plasmid. The KeratinoSens assay is a cell-based assay with a reporter cell line to detect potential skin sensitizers by their ability to induce the Nrf2/ARE-response. The activation of the report gene under culture conditions can be detected by ONE-Glo Luciferase Assay System (Promega, Madison, WI). This cell line has been used to screen the Tox21 10K compound library to identify agonists that induce oxidative stress. The cytotoxicity of the Tox21 compound library against the KS-ARE cell line was tested in parallel by measuring the cell viability using CellTiter- Fluor assay system (Promega, Madison, WI) in the same wells.
# HaCaT derived cell line KeratinoSens were dispensed at 1,500 cells/5uL/well in 1536-well white wall/solid bottom plates using a Multidrop Combi (ThermoFisher Scientific, Waltham, MA) dispenser. After the assay plates were incubated at 37 C/5% CO2 for 5 h, 23 nL of compounds dissolved in DMSO, positive controls or DMSO only was transferred to the assay plate by a pintool workstation (Kalypsys, San Diego, CA). The plates were incubated at 37 C/5% CO2 for 23 h, followed by addition of 1uL/well of CellTiter-Fluor reagent into the assay plates using a Flying Reagent Dispenser (Aurora Discovery, San Diego, CA) for cell viability readout that measures cytotoxicity. After 1 h incubation at 37 C/5% CO2 the fluorescence intensity was measured using a ViewLux (PerkinElmer, Shelton, CT) plate reader. Then 4uL/well of One-Glo were added using a Flying Reagent Dispenser. After the plates were incubated at room temperature for 30 min, the luminescence intensity in the assay plates was measured using ViewLux plate reader.
# Potency means the concentration at half of the fitted maximal effect.
SMILES,Potency,"activity, positive = activation"
CCCCCCCCCCCCCC[P+](CCCCCC)(CCCCCC)CCCCCC,inactive,
CCOP(=S)(CC)Sc1ccccc1 (stereo unspecified),inactive,
O=[As]c1ccccc1 (stereo unspecified),active: 486 nM,
CN(C(=O)Cc1ccc(Cl)c(Cl)c1)[C@H]1CC[C@@]2(CCCO2)C[C@@H]1N1CCCC1,inactive,
CCCCOP(OCCCC)OCCCC,inactive,
O=P(Cl)(Cl)c1ccccc1,inactive,
CN(C(=O)Cc1cccc2occc12)[C@H]1CC[C@@]2(CCCO2)C[C@@H]1N1CCCC1,inactive,
O=P(Cl)(Oc1ccccc1)Oc1ccccc1,inactive,
CCOC(=O)Cl,inactive,
COP(=S)(Cl)OC,inactive,
CCNC(C)Cc1ccc2c(c1)OCO2 (stereo unspecified),inactive,
O=C(Cl)Oc1ccccc1,inactive,
CC(C)CCCCCCCOP(OCCCCCCCC(C)C)Oc1ccccc1,inactive,
CCCCC(CC)CO[P+](=O)OCC(CC)CCCC (stereo unspecified),inactive,
CCC(C)(OOC(C)(C)C)OOC(C)(C)C,,inactive: 6.3% [at 19 µM]
COC(=O)Cl,inactive,
ClP(Cl)c1ccccc1,inactive,
O=[p+]1oc2ccccc2c2ccccc21 (stereo unspecified),inactive,
Cc1cc([N+](=O)[O-])c(O)c([N+](=O)[O-])c1,inactive,
CN(C(=O)Cc1ccccc1)[C@H]1CC[C@@]2(CCCO2)C[C@@H]1N1CCCC1,inactive,
CCCCO[P+](=O)OCCCC,inactive,
